From patent publication US20090162336A1 (published 2009)

B1: construct K12 (other, human)
chain: MQTAPVPMPDLKNVKSKIGSTENLKHQPGGGKVQIVYKPVDLSKVTSKCGSLGNIHHKPGGGQVEVKSEKLDFKDRVQSKIGSLDNITHVPGGGNKKIETHKLTFRENAKAKTDHGAEIVY
notes: range 244-274;range 306-394; 121 residues; Q244-Y394 without the second repeat V275-S305
B2: construct K11 (other, human)
chain: MQTAPVPMPDLKNVKSKIGSTENLKHQPGGGKVQIINKKLDLSNVQSKCGSKDNIKHVPGGGSVQIVYKPVDLSKVTSKCGSLGNIHHKPGGGQVEVKSEKLDFKDRVQSKIGSLDNITHVPGGGNKKIETHKLTFRENAKAKTDHGAEIVY
notes: range 244-394; 152 residues, four repeats
B3: K12 dimers cross-linked with PDM (other, human)
chain: B1 chain
modifications: Cys322 to Cys322 cross-linked by PDM
notes: range 244-274;range 306-394; also called K12 PDM dimer; PDM dimers

Legend:
[1] = molecular target: the molecule itself; assay: SDS gel without DTT, chemical cross-linking, gel filtration
[2] = molecular target: the molecule itself; assay: self-assembly, negative stain electron microscopy

Protein | binding result [1] | binding result [2]
B1 | binds | –
B2 | – | binds
B3 | – | binds
